Data on one molecule can be found in patent publication US10640486B2, “Heteroarylcarboxamide derivatives as plasma kallikrein inhibitors” (Boehringer Ingelheim International GmbH, priority 2015, dated 2020).

By UniProt entry, the sequences of proteins in these tests, tags left out. Residues count along the entry.
UniProt P03952, 391-638 limits assumed: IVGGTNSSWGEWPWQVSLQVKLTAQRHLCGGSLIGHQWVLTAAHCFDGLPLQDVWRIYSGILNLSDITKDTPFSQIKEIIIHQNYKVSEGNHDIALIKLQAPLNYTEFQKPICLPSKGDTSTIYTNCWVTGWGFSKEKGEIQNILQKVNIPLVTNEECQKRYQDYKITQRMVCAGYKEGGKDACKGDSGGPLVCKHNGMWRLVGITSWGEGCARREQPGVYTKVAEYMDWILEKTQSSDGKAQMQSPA
UniProt P03952, 20-390 partner limits assumed: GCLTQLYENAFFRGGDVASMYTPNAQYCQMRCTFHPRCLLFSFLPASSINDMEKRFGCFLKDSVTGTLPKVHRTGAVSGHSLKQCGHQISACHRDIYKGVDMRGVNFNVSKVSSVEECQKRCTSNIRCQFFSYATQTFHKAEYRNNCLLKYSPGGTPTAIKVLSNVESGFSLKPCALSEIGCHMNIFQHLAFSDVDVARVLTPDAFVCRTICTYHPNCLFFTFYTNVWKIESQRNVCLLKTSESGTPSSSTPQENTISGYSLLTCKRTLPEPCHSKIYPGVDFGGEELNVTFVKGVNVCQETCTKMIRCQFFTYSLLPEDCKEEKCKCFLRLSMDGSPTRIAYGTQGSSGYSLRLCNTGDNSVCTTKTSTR

The target of this assay is human Plasma Kallikrein (KLKB1) (Homo sapiens (Human), UniProt P03952). Briefly: Inhibition of KLKB1 endpoint assay. The conditions noted are these: read-out: IC50 measurements for the inhibition of human Plasma Kallikrein (KLKB1), fluorogenic substrate H-Pro-Phe-Arg-AMC, 1 hr at Room Temperature. Type of assay: biochemical. Here is the method: The ability of compounds of Formula I to inhibit plasma kallikrein (KLKB1), Factor XIIa (FXIIa), Factor XIa (FXIa), Factor Xa (FXa), Factor IIa (alpha-thrombin; FIIa), plasmin, trypsin, tissue kallikrein 1 (KLK1), Factor VIIa (FVIIa), or FVIIa complexed with Tissue Factor, phospholipids and CaCl2 (FVIIa/TF/PL/CaCl2) was determined using the following biochemical assays in assay buffer (100 mM Tris, 150 mM NaCL, adjusted to a pH of 7.8 with HCl, and containing 0.1% (w/v) BSA and 0.05% (v/v) Tween20) in the presence of 1% (v/v) DMSO:
Evaluation of the Inhibition of KLKB1 Using an Endpoint Assay
Human KLKB1 (0.01 U/mL; Enzyme Research Laboratories) or rat KLKB1 (0.625 nM; produced in-house) was incubated for 1 hr at Room Temperature with 0.10 μM fluorogenic substrate H-Pro-Phe-Arg-AMC (11295 from Bachem) and various concentrations of the test compound in assay buffer. Subsequently, PPACK II (Calbiochem) was added as a stop solution to achieve a final concentration of 1 μM and fluorescence was measured using an Envision Reader (PerkinElmer) with the wavelength excitation setting of 355 nm and the wavelength emission setting of 460 nm.
The IC50 values were obtained with the aid of the inhibition of KLKB1 endpoint assay described above.

The structures appear in SMILES notation.

For `Nc1nccc2c1CC[C@H]2NC(=O)c1cn(Cc2ccc(CN3CC4CCCN4C3=O)cc2)nc1C(F)(F)F` (stereo partly shown), the IC50 worked out at 4 nM.

In general, IC50 refers to the concentration at which inhibition is half-maximal.
